This note sets out measurements from patent US9006450B2 (Boehringer Ingelheim International GmbH, priority 2010, dated 2015).

The chains behind the UniProt entries cited, without tags or fusion partners. Residues count along the entry.
UniProt O00763, 129-2458 limits assumed: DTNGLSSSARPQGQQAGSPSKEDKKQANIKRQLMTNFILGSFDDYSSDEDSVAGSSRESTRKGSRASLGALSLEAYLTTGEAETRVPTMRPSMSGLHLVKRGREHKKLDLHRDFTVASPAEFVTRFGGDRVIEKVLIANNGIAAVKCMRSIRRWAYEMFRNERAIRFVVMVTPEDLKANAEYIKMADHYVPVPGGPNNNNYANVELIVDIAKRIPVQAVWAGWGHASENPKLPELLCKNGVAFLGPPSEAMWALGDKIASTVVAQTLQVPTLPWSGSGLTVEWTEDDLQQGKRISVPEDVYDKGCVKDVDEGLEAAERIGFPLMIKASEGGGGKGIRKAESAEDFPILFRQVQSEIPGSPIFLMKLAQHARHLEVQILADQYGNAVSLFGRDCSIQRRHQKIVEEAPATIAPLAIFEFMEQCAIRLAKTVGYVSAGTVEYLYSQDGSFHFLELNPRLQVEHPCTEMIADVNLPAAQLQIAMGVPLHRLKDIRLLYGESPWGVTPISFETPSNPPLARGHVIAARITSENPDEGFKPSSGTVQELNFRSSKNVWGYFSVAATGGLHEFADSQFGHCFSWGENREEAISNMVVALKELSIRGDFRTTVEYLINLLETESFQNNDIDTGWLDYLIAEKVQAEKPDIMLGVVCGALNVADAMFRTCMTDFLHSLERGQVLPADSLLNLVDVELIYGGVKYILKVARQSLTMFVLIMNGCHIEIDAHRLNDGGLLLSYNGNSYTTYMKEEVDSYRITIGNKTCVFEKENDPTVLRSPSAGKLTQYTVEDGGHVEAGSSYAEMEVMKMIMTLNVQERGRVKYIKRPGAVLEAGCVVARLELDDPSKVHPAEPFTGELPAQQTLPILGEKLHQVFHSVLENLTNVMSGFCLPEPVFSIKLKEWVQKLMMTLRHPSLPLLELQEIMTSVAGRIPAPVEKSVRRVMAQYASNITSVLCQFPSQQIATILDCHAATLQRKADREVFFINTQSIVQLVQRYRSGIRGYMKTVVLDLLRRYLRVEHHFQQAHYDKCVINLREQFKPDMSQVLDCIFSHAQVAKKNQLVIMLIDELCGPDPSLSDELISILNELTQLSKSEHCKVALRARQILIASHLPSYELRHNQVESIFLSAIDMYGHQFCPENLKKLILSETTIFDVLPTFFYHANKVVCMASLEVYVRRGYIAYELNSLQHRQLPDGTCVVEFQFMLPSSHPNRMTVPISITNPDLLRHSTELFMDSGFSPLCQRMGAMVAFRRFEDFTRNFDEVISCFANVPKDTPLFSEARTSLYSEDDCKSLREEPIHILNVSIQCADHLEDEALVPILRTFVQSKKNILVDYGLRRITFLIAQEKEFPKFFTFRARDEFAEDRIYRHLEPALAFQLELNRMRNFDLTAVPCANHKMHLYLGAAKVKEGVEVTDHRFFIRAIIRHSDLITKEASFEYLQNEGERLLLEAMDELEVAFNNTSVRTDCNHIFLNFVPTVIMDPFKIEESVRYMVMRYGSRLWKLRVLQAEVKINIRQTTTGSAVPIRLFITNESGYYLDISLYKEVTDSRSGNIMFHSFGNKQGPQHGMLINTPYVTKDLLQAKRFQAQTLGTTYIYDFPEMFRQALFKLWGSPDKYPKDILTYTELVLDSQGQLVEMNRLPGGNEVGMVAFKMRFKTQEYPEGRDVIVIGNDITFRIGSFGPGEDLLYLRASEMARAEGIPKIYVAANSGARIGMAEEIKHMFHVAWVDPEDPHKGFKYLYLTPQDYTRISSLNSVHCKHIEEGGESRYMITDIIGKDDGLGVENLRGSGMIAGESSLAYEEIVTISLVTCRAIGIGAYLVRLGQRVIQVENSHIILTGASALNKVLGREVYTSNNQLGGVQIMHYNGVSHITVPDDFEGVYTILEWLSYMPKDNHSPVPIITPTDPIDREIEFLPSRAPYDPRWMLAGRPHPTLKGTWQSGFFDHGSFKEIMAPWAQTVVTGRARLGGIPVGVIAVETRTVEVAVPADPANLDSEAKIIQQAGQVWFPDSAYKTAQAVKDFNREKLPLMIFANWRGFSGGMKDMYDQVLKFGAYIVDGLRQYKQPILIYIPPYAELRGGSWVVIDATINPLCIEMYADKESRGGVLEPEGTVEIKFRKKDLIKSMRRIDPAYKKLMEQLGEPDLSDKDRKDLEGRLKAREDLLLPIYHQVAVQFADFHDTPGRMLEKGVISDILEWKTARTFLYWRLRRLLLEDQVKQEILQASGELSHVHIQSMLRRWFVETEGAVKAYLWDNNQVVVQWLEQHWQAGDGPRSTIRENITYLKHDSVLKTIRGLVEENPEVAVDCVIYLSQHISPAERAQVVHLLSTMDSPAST

The target of this assay is human ACC2 (Homo sapiens, UniProt O00763). Kind of assay: ACC2 assay, spectrophotometric 384 well assay (NADH-linked, coupled lactate dehydrogenase/pyruvate kinase). Conditions: hACC2 construct lacking 128 N-terminal amino acids, 25° C., 340 nm. The procedure:
Spectrophotometric 384 Well Assay
Malonyl CoA formation by acetyl CoA carboxylases is stoichometrically linked to the consumption of ATP. ACC2 activity is measured in a NADH-linked kinetic method measuring ADP generated during the ACC reaction using a coupled lactate dehydrogenase/pyruvate kinase reaction.
For biological testing, a human ACC2 construct which lacks the 128 amino acids at the N-terminus for increased solubility (nt 385-6966 in Genbank entry AJ575592) is cloned. The protein is then expressed in insect cells using a baculoviral expression system. Protein purification is performed by anion exchange.
All compounds are dissolved in dimethyl sulfoxide (DMSO) to a concentration of 10 mM.
Assay reactions are then carried out in 384-well plates, with hACC2 in an appropriate dilution and at final assay concentrations (f.c.) of 100 mM Tris (pH 7.5), 10 mM trisodium citrate, 25 mM KHCO3, 10 mM MgCl2, 0.5 mg/mL BSA, 3.75 mM reduced L-glutathione, 15 U/mL lactate dehydrogenase, 0.5 mM phosphoenolpyruvate, 15 U/mL pyruvate kinase, compounds at different concentrations at final DMSO concentrations of 1%.
The enzymatic reaction is then started by addition of a mixture of NADH, acetyl Coenzyme A (both 200 μM f.c.) and ATP (500 uM f.c.). The decrease of the optical density (slope S) is then determined at 25° C. at a wavelength of 340 nm over 15 minutes in a spectrophotometric reader.
Each assay microtiter plate contains wells with vehicle instead of compound as controls for the non-inhibited enzyme (100% CTL; ‘HIGH’) and wells without acetyl-CoA as controls for non-specific NADH degradation (0% CTL; ‘LOW’).
The slope S is used for calculation of % CTL=(S(compound)−S('LOW'))/(S('HIGH')−S('LOW'))*100. Compounds will give values between 100% CTL (no inhibition) and 0% CTL (complete inhibition).
For IC50 value determination, the sample slope in the presence of the test compound after subtraction of the low controls (S(compound)−S('LOW')) are used.
An IC50 value is derived from the compound slopes at different dosages after subtraction of the low controls (S(compound)−S('LOW')) by non-linear regression curve fitting (equation y=(A+((B−A)/(1+((C/x)^D))))).

Turning to `CC(=O)N[C@@H](C)c1ccc(C2CCN(c3ccc(OC(C)C)cc3)CC2)cc1`, the IC50 – broadly, the concentration that inhibits the measured activity by half – came to 240 nM.
Then `CCC(=O)N[C@@H](C)c1ccc(C2CCN(c3ccc(OCC4CC4)cc3)CC2)cc1`, with 130 nM; and `CCOc1cc(N2CCC(c3ccc([C@H](C)NC(=O)N(C)C)cc3)CC2)ccn1`, with 170 nM.
Then `CCOc1ccc(N2CCC(c3ccc([C@H](C)NC(=O)C4CCOC4)cc3)CC2)cc1` (stereo partly shown), with 2600 nM.
Then `C[C@H](NC(=O)N(C)C)c1ccc(C2CCN(c3ccc4c(c3)OCCO4)CC2)cc1`, with 350 nM; and `CC(=O)N[C@@H](C)c1ccc(C2CCN(c3ncc(-c4ccoc4)cn3)CC2)cc1`, with 20 nM.
`CC(=O)N[C@H](C)c1ccc(C2CCN(c3ccc(OCC4CC4)cc3)CC2)cc1` returned an IC50 of 13200 nM.
The value for `CC(=O)N[C@@H](C)c1ccc(C2CCN(c3ccc(OC4CCC4)cc3)CC2)cc1` was 30 nM; that for `CC(=O)N[C@@H](C)c1ccc(C2CCN(c3cc(Oc4ccccc4)ncn3)CC2)cc1` was 290 nM.
`CC(=O)N[C@@H](C)c1ccc(C2CCN(c3ccc(OCC4CC4(F)F)cc3F)CC2)cc1` (stereo partly shown): the IC50 came out at 30 nM.
Regarding `CC(=O)N[C@@H](C)c1ccc(C2CCN(c3ccc(OC4CC4)cc3)CC2)cc1`, the IC50 is 50 nM.
The value for `COc1cc(OC2CC2)ccc1N1CCC(c2ccc([C@H](C)NC(C)=O)cc2)CC1` was 160 nM; that for `CCOc1ccc(N2CCC(c3ccc([C@@H](C)NC(C)=O)cc3)CC2)c(F)c1` was 23300 nM.
Then `CCOc1ccc(N2CCC(c3ccc([C@H](C)NC(C)=O)cc3)CC2)c(OC)c1`, with 350 nM; and `CCOc1ccc(N2CCC(c3ccc([C@H](C)NC(C)=O)cc3)CC2)c(F)c1`, with 90 nM.
Take `CC(=O)N[C@@H](C)c1ccc(C2CCN(c3ccc(OCC4(C#N)CC4)cc3)CC2)cc1`: the half-inhibitory concentration (IC50) was found to be 2700 nM.
The value for `CC(=O)N[C@@H](C)c1ccc(C2CCN(c3ccc(OCC4CC4)cc3F)CC2)cc1` was 40 nM; that for `CCOc1ccc(N2CCC(c3ccc([C@H](C)NC(C)=O)cc3)CC2)c(C#N)n1` was 210 nM.
The value for `CCOc1ccc(N2CCC(c3ccc([C@H](C)NC(=O)N(C)C)cc3)CC2)cc1` was 140 nM.
